Reference: paper PMC4227788, “Architecture and ssDNA interaction of the Timeless-Tipin-RPA complex” (Nucleic Acids Research, 2014)

B1: RPA DNA-binding core with the WH domain (RPA70 190-623 / RPA32 43-270 / RPA14 1-121) (complex, mouse)
chain 1: QSKVVPIASLTPYQSKWTICARVTNKSQIRTWSNSRGEGKLFSLELVDESGEIRATAFNEQVDKFFPLIEVNKVYYFSKGALKIANKQFSAVKNDYEMTFNNETSVLPCEDGHHLPTVQFDFTGIGDLESKAKDALVDIIGICKSYEDSIKITVKSNNREVAKRNIYLMDMSGKVVTTTLWGEDADKFDGSRQPVMAIKGARVSDFGGRSLSVLSSSTVIVNPDIPEAYKLRGWFDSEGQALDGVSISDHRSGGAGGGNTNWKTLHEAKSENLGQGDKADYFSTVAAVVFLRKENCMYQACPTQDCNKKVIDQQNGLYRCEKCDREFPNFKYRMILSANIADFQENQWVTCFQESAEAILGQNTMYLGELKEKNEQAFEEVFQNANFRSFTFRIRVKLETYNDESRIKATVMDVKPVDFRDYGRRLIANIRKNM
chain 2: AQHIVPCTISQLLSATLTDEVFRIGDVEISQVTIVGIIRHAEKAPTNIVYKIDDMTAPPMDVRQWVDTDDASGENAVVPPETYVKVAGHLRSFQNKKSLVAFKIIPLEDMNEFTAHILEVVNSHMMLSKPNSQASAGRPSMSNPGMSEPGNFSGNNFMPANGLTVVQNQVLNLIKACPRPEGLNFQDLRSQLQHMPVPSIKQAVDFLCNEGHIYSTVDDDHFKSTDAE
chain 3: MEDIMQLPKARVNASMLPQYIDRPVCFVGKLEKIHPTGKMFILSDGEGKNGTIELMEPLDEEISGIVEVVGKVTAKATVLCASYTLFKEDTNRFDLELYNEAVKIINELPQFFPVGLPQHE
B2: Timeless-Tipin complex (Tim residues 1-1134 with full-length Tipin), tags cleaved (complex, mouse)
chain 1: MDLYMMNCELLATCSALGYLEGGTYHKEPDCLESVKDLIRYLRHEDETRDVRQQLGAAQILQSDLLPILTQHRQDKPLFDAVIRLMVNLTQPALLCFGSVPKDSSVRHHFLQVLTYLQAYKEAFASEKAFGVLSETLYELLQLGWEDRQEEDNLLIERILLLVRNILHVPANLEQEKSIDDDASIHDRLLWAIHLSGMDDLLLFLSSSSAEQQWSLHVLEIISLMFRDQTPEQLAGVGQGRLAQERSTDVAELEVLRQREMAEKRARALQRGNRHSRFGGSYIVQGLKSIGEKDVVFHKGLHNLQNYSSDLGKQPRRVPKRRQAAQELSVHRRSVLNVRLFLRDFCSEFLENCYNPLMGAVKDHLLRERAQQHDETYYMWAMAFFMAFNRAATFRPGLVSETLSIRTFHFVEQNLTNYYEMMLTDRKEAASWARRMHLALKAYQELLATVNEMDMCPDEAVRESSRIIKNNIFYMMEYRELFLALFRKFDERYHPRSFLRDLVETTHLFLKMLERFCRSRGNLMVQNKRKKRKKKKKVQDQGVAFSQSPGELEAMWPALAEQLLQCAQDPELSVDPVVPFDAASEVPVEEQRVEAMVRIQDCLTAGQAPQALALLRSAREVWPEGNAFGSPVISPGEEMQLLKQILSTPLPRQQEPEEGDAEEEEEEEEEEELQVVQVSEKEFNFLEYLKRFASSTIVRAYVLLLRSYRQNSAHTNHCIAKMLHRLAHGLGMEALLFQLSLFCLFNRLLSDPAAAAYKELVTFAKYIIGKFFALAAVNQKAFVELLFWKNTAVVREMTQGYGSLDSGSSSHRAPLWSPEEEAQLQELYLAHKDVEGQDVVETILAHLKVVPRTRKQVIHHLVRMGLADSVKEFQKRKGTQIVLWTEDQELELQRLFEEFRDSDDVLGQIMKNITAKRSRARVVDKLLALGLVSERRQLYKKRRKKLAPSCMQNGEKSPRDPWQEDPEEEDEHLPEDESEDEESEEGLPSGQGQGSSSLSAENLGESLRQEGLSAPLLWLQSSLIRAANDREEDGCSQAIPLVPLTEENEEAMENEQFQHLLRKLGIRPPSSGQETFWRIPAKLSSTQLRRVAASLSQQENEEEREEEPEPGVPGEQGPSEEHRTEALRALLSAR
chain 2: MLEQEENGLFEIPDYEHVEDETFPPFPPPASPERDPADAEPEEGSGSGVPVPPKRTVKRNLPKLDATRLTSERGLPALRHVFDKTKFKGKGHEAEDLKTLIRHMEHWAHRLFPKLQFEDFIDRVENLGNKKEVQTCLKRIRLDLPIVHEDFVNNNDEVGEANGPDVSATGFDPFLTSSSDSRKFASEPTRSLTEEQQQRIERNKQLALERRQAKLLSNSQSLENDVTVEENSTGEDQEESNGLNIDTADGPHDVPFASTHEEEQCKAEETQLDHTNLD
notes: Timeless (Tim), mouse, AB019001, aa 1-1134; lacks the C-terminal residues 1135-1197; Constructs are written His-Tim and His-GST-Tipin; also called Tim-Tipin; TTP; source: E. coli BL21 (DE3) gold with pRARE, co-expressed, purified (Ni-NTA, Q-sepharose, 3C cleavage, SEC); copies: 1 + 1

Key:
[1] = target: B2; experiment: MST; 100 nM Cy3-labelled RPA titrated with non-labelled Tim-Tipin (25-80 550 nM) in Buffer A, 10 min at RT; Hill fit; three repeats; settings: both partners purified
[2] = target: B1; experiment: SEC + SEC-MALS; analytical SEC on Superose 6 3.2/PC in Buffer A (20 mM Hepes pH 7.5, 125 mM NaCl, 2 mM DTT, 0.01 mM zinc acetate), Tim-Tipin:RPA 16 μM:16 μM or 16 μM:32 μM; static light scattering (SLS) on Superdex 200 5/150, 2 mg/ml; settings: both partners purified

Binder | Kd [1] [nM] | stoichiometry N [2]
B1 | 180 ± 40 | 
B2 |  | 1
